Values quoted from earlier work in paper PMC3997047.

By UniProt entry, the sequences of proteins in these tests, tags left out. Where a name states a change or a piece, a line headed by the entry shows the natural chain unless it says otherwise.
UniProt P00581: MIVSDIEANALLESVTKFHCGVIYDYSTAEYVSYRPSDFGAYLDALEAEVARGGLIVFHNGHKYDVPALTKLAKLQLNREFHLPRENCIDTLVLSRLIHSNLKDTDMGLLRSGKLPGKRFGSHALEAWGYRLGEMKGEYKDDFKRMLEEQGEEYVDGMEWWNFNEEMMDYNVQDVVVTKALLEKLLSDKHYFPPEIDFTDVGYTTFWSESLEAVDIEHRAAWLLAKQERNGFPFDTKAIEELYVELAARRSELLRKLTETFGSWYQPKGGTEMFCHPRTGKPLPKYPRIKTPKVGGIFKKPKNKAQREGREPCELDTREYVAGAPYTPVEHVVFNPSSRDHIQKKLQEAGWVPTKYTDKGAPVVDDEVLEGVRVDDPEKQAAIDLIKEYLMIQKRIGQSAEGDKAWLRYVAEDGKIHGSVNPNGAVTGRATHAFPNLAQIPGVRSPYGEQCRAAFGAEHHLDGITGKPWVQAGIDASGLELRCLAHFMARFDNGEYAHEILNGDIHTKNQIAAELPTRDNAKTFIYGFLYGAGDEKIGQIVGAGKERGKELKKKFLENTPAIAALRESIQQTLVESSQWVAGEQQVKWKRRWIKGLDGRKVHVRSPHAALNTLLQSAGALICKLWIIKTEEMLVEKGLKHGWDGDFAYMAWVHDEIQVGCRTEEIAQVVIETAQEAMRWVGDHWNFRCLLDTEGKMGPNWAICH

Target: T7 gene 5 protein (DNA polymerase) (Escherichia phage T7) (UniProt P00581)

Thioredoxin (from UniProt P0AA25)
Kd: 5 nM
